In patent US4386093A, “(±)3-Deazaaristeromycin and uses” (The United States of America as represented by the …, priority 1981, dated 1983):
Where two headings read alike, the source gives them in different places.

Experiments:
NRK 153 Cl 7 cells = test: Cellular AdoHcy and AdoMet levels in NRK 153 Cl 7 cells; format: cell-based; settings: Rattus norvegicus
mouse L cells = test: Cellular AdoHcy and AdoMet levels in mouse L cells; format: cell-based; settings: 30 μM, twenty-four hours
HL-23 C type virus = test: HL-23 foci formation (oncogenic transformation) in normal rat kidney cells

Nc1nccc2c1ncn2[C@@H]1C[C@H](CO)[C@@H](O)[C@H]1O (relative stereo) [(±)3-deazaaristeromycin, (±)-4-amino-1-[(1α, 2β, 3β, 4α)-2,3-dihydroxy-4-(hydroxymethyl)-cyclopentyl]imidazo[4,5-c]pyridine]
fold induction at 1 µM (NRK 153 Cl 7 cells; 2 h, two hours, read-out: Increase in AdoHcy): 5
fold induction at 1 µM (NRK 153 Cl 7 cells; 24 hours, read-out: Increase in AdoHcy): 30
fold induction at 1 µM (NRK 153 Cl 7 cells; read-out: Increase of AdoMet): 1.3
Level of AdoMet (mouse L cells): returned to normal
Selectivity ratio (highest noncytotoxic concentration over lowest effective concentration) (HL-23 C type virus): > 8
